Article PMC6182140, “p15^PAF binding to PCNA modulates the DNA sliding surface” (Nucleic Acids Research, 2018)

Key:
pol η–PCNA holoenzyme [1] = assay: TLS time course of pol η on cisPt(GG) template; type: biochemical, human; conditions: cisPt(GG) template 10 nM, pol η 40 nM; p15 with equimolar PCNA (p15), 10-fold excess PCNA (PCNA), or pol η alone; pH 8, 37°C
Method: (§1) The 24-mer template oligonucleotide containing the cis-PtGG adduct was a kind gift from S.J. Sturla (ETH, Zürich) and was prepared and purified as described previously (Nilforoushan, 2015). All other DNA oligonucleotides, all HPLC purified, were synthesized by Biomers.net (Germany). The 18mer primer oligonucleotide was 5′-labeled with carboxyfluorescin (FAM) group. The labeled primer was mixed to the complementary template oligonucleotide at 1:1 (M/M) ratio in the presence of 150 mM Hepes–KOH pH 7.4, 500 mM KCl, 10 mM MgCl2, 250 mM NH4Ac, heated at 95°C for 5 min and then slowly cooled at room temperature.
(§2) pJM879 ([33]), expressing N-terminal His-tagged human pol η, was a kind gift from R. Woodgate (NIH, USA). Human recombinant pol η was expressed and purified with a modified protocol: BL21 DE3 competent E. coli cells were transformed with pJM879. Plates containing […] kanamycin were used to identify kanamycin-resistant colonies that were picked and grown overnight at 37°C. DNA purified from bacterial cultures using NucleoSpin® Plasmid (NoLid) kit ([…]-NAGEL, Düren, Germany) was digested to confirm the presence of the gene expressing pol η. Transformed E. coli cells were used to inoculate a 50 ml starter culture. After overnight growth at 37°C, 12 ml of the starter culture were put into 1 l of LB medium (containing […] kanamycin). […]

pol η–PCNA holoenzyme [2] = assay: TLS by pol η on cis-Pt template in the presence of RF-C; type: biochemical, human; conditions: 50 µM dNTPs, 0.5 mM ATP, 150 nM ScRF-C, 400 nM pol η, 400 nM p15, 50 nM PCNA, 40 nM cis-Pt 18/24mer
Method: Recombinant ScRF-C was obtained as a kind gift from the laboratory of Alessandro Costa (Francis Crick Institute), and was prepared following the procedure described in ([34]).
All reactions were performed in a 10 μl final volume using the following conditions: 40 mM Tris pH 8, 1 mM dithiotreitol (DTT), 0.25 mg/ml bovine serum albumin (BSA), 10 mM Mg^2+ (unless otherwise stated in the figures or figure legends). Reactions were incubated at 37°C for 15 min, unless otherwise stated. Reaction mixtures were stopped by addition of standard denaturing gel loading buffer (95% formamide, […], xylene cyanol and bromophenol blue), heated at 95°C for 5 min and loaded on a 7-M urea 12% polyacrylamide (PA) gel.
Inhibition of pol h activity by PCNA-p15 in the presence of RF-C. Pol h was tested on the 18/24mer primer-template substrate bearing a cis-Pt adduct at the two guanines at positions +1 and +2 of the template strand, in the presence of RF-C and in the absence (lanes 10-13) or in the […]
presence of PCNA (lanes 6-9) or PCNA and p15 (lanes 2-5). Reactant concentrations were: 50 […]
corresponding to incorporation opposite the two G's of the cis-Pt adduct, and a delay in the appearance of longer products, particularly at short incubation times (compare lanes 2,3 with […]
across a cis-Pt lesion even in the presence of RF-C. […]

DNA = tested on: DNA; design: method as in PMID 25762514; conditions: biochemically measured; cited from earlier work
pol η–PCNA holoenzyme [3] = assay: DNA synthesis by pol η on undamaged template; type: biochemical, human; conditions: undamaged template 10 nM; pol η alone or with PCNA; 37°C, pH 8
Method: as §1, §2

In the case of “PCNA: Human PCNA (UniProt: P12004), Proliferating Cell Nuclear Antigen, homotrimeric sliding clamp”, the “effect on lesion bypass / nucleotide incorporation” value (pol η–PCNA holoenzyme [1]) is listed as “did not significantly affect pol η activity”, the “effect on TLS in the presence of RF-C” value (pol η–PCNA holoenzyme [2]) is listed as “did not significantly change the translesion synthesis products” and the “DNA binding affinity of PCNA alone” value (DNA) is listed as “no DNA binding affinity can be biochemically measured”. For the same substance, the processivity (pol η–PCNA holoenzyme [3]) was “equal processivity”.
